{
  "source": "patent US9751885B2",
  "about": "“Cyclopropanamine compound and use thereof” (Takeda Pharmaceutical Company Limited, priority 2012, dated 2017)",
  "tested_on": "white blood cell number, red blood cell number, platelet number",
  "details": "mouse, in vivo, po",
  "note": "Structures can show the parent of a compound that is named as a salt. Where two headings read alike, the source gives them in different places.",
  "data": [
    {"smiles": "CC(=O)N1CCC(N[C@@H]2C[C@H]2c2cccc(C(=O)Nc3ccc(F)cc3)c2)CC1", "note": "(relative stereo) [Example 206, 3-(trans-2-((1-acetylpiperidin-4-yl)amino)cyclopropyl)-N-(4-fluorophenyl) benzamide hydrochloride]", "values": [
      {"measurement": "platelet number, percentage of compound administration group compared to control group, mean", "setting": "10 mg/kg", "result": 85.5, "unit": "%"},
      {"measurement": "red blood cell number, percentage of compound administration group compared to control group, mean", "setting": "10 mg/kg", "result": 102.1, "unit": "%"},
      {"measurement": "white blood cell number, percentage of compound administration group compared to control group, mean", "setting": "10 mg/kg", "result": 92.7, "unit": "%"},
      {"measurement": "platelet number, percentage of compound administration group compared to control group, mean", "setting": "100 mg/kg", "result": 84.3, "unit": "%"},
      {"measurement": "red blood cell number, percentage of compound administration group compared to control group, mean", "setting": "100 mg/kg", "result": 102.3, "unit": "%"},
      {"measurement": "white blood cell number, percentage of compound administration group compared to control group, mean", "setting": "100 mg/kg", "result": 130.7, "unit": "%"}
    ]}
  ]
}
